Source: PubChem BioAssay AID540364 (The Scripps Research Institute Molecular Screening Center, 2011)
The entries are a selection whose mix differs from that of the whole data set. Some structures show a salt or complex split into parts, the way the source records it. Activity calls are given as the source filed them.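 The calls were made as follows: active = activation above the average of all compounds screened plus 3 SD, cutoff fixed separately per campaign (cut at about 7.5% in these data); inactive = the rest.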

Test: GAA850 frataxin promoter reporter upregulation – cell-based, luciferase luminescence, HEK293 lucGAA850, primary screen (AID 540364);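 also: 0% = DMSO wells and 100% = 10 µM SAHA wells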
Details: HEK293 lucGAA850 FXN promoter luciferase reporter, 24 h; at 6 µM; active compounds read high; percent of 10 µM SAHA response
With `O=[N+]([O-])c1cc([N+](=O)[O-])c(Nc2ccc(Cl)cc2)c([N+](=O)[O-])c1` the activation was inactive: -3.6%.
For `CP(=O)(Nc1ccccc1F)Oc1ccccc1` (centres undefined), the activation was inactive: -0.07%.
With `CC(C)c1ccc(OP(C)(=O)Nc2ccc(SC(F)(F)F)cc2)cc1` (centres undefined) the activation was inactive: 1.03%.
In the case of `O=C(OC1CN2CCC1CC2)c1ccc([N+](=O)[O-])cc1` (centres undefined), the activation is reported as inactive: -2.57%.
In the case of `O=C(OCCN1CCN(CCOCc2ccccc2)CC1)C(O)(c1ccccc1)c1ccccc1`, the activation is reported as inactive: -1.59%.
For `COc1ccc2c(c1O)-c1c(O)c(OC)cc3c1[C@H](C2)[N+](C)(C)CC3.O=[N+]([O-])c1cc([N+](=O)[O-])c([O-])c([N+](=O)[O-])c1[O-]`, the activation was inactive: 0.38%.
With `CCOC(=O)c1ccc(NP(C)(=O)Oc2ccc(F)cc2)cc1` (centres undefined) the activation was inactive: 3.65%.
For `COc1ccc(OP(C)(=O)Nc2ccc(SC(F)(F)F)cc2)cc1` (centres undefined), the activation was inactive: -1.84%.
With `Cc1c([N+](=O)[O-])cc([N+](=O)[O-])c(Br)c1[N+](=O)[O-]` the activation was inactive: -1.11%.
For `CCN(CC)CCCOC(=O)C(O)(c1ccccc1)C1CCCCC1` (centres undefined), the activation was inactive: 0.22%.
For `CP(=O)(Nc1ccccc1)Oc1ccc(F)cc1` (centres undefined), the activation was inactive: 0.45%.
For `O=[N+]([O-])c1cc([N+](=O)[O-])c(OC2CCCCC2O)c([N+](=O)[O-])c1` (centres undefined), the activation was inactive: -0.94%.
With `CCCCCOc1ccc(NP(C)(=O)Oc2ccc(Cl)cc2Cl)cc1` (centres undefined) the activation was inactive: 0.77%.
In the case of `COc1ccc(OP(C)(=O)Nc2cccc(Br)c2)cc1` (centres undefined), the activation is reported as inactive: -1.76%.
With `CN(C)CCOC(=O)C(O)(c1ccccc1)C1CCCCC1` (centres undefined) the activation was inactive: 1.89%.
With `COc1ccc(NP(C)(=O)Oc2ccccc2OC)cc1` (centres undefined) the activation was inactive: 1.56%.
In the case of `O=[N+]([O-])c1ccc(OP2(=O)COCCO2)cc1` (centres undefined), the activation is reported as inactive: 0.16%.
In the case of `Cc1cc(-c2cccc3ccccc23)c(C)cn1.O=[N+]([O-])c1cc([N+](=O)[O-])c(O)c([N+](=O)[O-])c1`, the activation is reported as inactive: 2.66%.
In the case of `O=[N+]([O-])c1cc([N+](=O)[O-])c(NCC2CCS(=O)(=O)C2)c([N+](=O)[O-])c1` (centres undefined), the activation is reported as active: 11.8%.
For `Cc1c(C(c2ccc3c(c2)OCO3)c2c(C)n(C)n(-c3ccccc3)c2=O)c(=O)n(-c2ccccc2)n1C.O=[N+]([O-])c1cc([N+](=O)[O-])c(O)c([N+](=O)[O-])c1`, the activation was inactive: -1.88%.
With `CP(=O)(Nc1ccc(SC(F)(F)F)cc1)Oc1ccc(F)cc1` (centres undefined) the activation was inactive: -1.2%.
For `CCOP(C)(=S)SCC(=O)NC(C)(CC)C(=O)O` (centres undefined), the activation was inactive: -1.46%.
For `CP(=O)(Nc1ccc2c(c1)OCCO2)Oc1ccccc1` (centres undefined), the activation was inactive: -4%.
With `Cc1ccccc1NP(C)(=O)Nc1ccccc1C` the activation was inactive: -1.15%.
For `CCN(CC)CC(O)COC(=O)C(O)(c1ccccc1)C1CCCCC1` (centres undefined), the activation was inactive: -1.9%.
In the case of `COc1ccc(OP(C)(=O)Nc2ccc(Br)cc2)cc1` (centres undefined), the activation is reported as inactive: -0.85%.
For `COc1ccccc1OP(C)(=O)Nc1c(C)n(C)n(-c2ccccc2)c1=O` (centres undefined), the activation was inactive: -1.78%.
With `O=C(OCCCN1CCCC1)C(O)(c1ccccc1)C1CCCCC1` (centres undefined) the activation was inactive: 1.5%.
With `CP(=O)(Oc1ccccc1)N1CCOC1=O` (centres undefined) the activation was inactive: 0.27%.
In the case of `CCc1ccc(OP(C)(=O)Nc2cccnc2)cc1` (centres undefined), the activation is reported as inactive: -0.45%.
In the case of `CC(C)(C)c1ccc(OP(C)(=O)O)cc1`, the activation is reported as inactive: -1.34%.
For `COc1ccccc1OP(C)(=O)Nc1ccccc1Br` (centres undefined), the activation was inactive: -0.11%.
For `CP(=O)(Nc1ccc(Cl)cc1)Oc1ccc(F)cc1` (centres undefined), the activation was inactive: 0.55%.
For `CN(C)C(=O)c1c([N+](=O)[O-])cc([N+](=O)[O-])cc1[N+](=O)[O-]`, the activation was inactive: -3.06%.
For `CCOC(=O)c1ccc(NP(C)(=O)Oc2ccc(Cl)cc2)cc1` (centres undefined), the activation was inactive: -2.33%.
For `CP(=O)(OC12CC3CC(CC(C3)C1)C2)OC12CC3CC(CC(C3)C1)C2`, the activation was inactive: -0.8%.
With `O=C1C(O)=C([N+](=O)[O-])C(=O)C(O)=C1[N+](=O)[O-]` the activation was inactive: -1.8%.
With `Cc1cc(C)cc(OP(C)(=O)Nc2cccc(C(F)(F)F)c2)c1` (centres undefined) the activation was inactive: 0.34%.
In the case of `COc1ccccc1OP(C)(=O)Nc1ccc(C)c(C)c1` (centres undefined), the activation is reported as inactive: 0%.
In the case of `COc1ccc(OP(C)(=O)Nc2ccccc2Br)cc1` (centres undefined), the activation is reported as inactive: 0.36%.
With `CP(=O)(OCCOc1ccccc1)OCCOc1ccccc1` the activation was inactive: 1.45%.
For `CP(=O)(Nc1ccc(Cl)cc1Cl)Oc1ccccc1` (centres undefined), the activation was inactive: 0.99%.
With `CCCCCCCCCCCCCCCC1C[N+](C)(C)CCOP(C)(=O)O1` (centres undefined) the activation was inactive: -0.83%.
With `COc1ccccc1OP(C)(=O)Nc1ccc(Br)cc1` (centres undefined) the activation was inactive: 1.79%.
In the case of `COc1ccc(OP(C)(=O)Nc2ccccn2)cc1` (centres undefined), the activation is reported as inactive: 1.31%.
With `CN(C)CCOC(=O)C(O)(c1ccccc1)C1CCCC1` (centres undefined) the activation was inactive: 0.53%.
With `O=[N+]([O-])c1cc([N+](=O)[O-])c(Nc2ccccn2)c([N+](=O)[O-])c1` the activation was inactive: 2.37%.
In the case of `Cc1c(NP(C)(=O)Oc2ccc(C(C)C)cc2)c(=O)n(-c2ccccc2)n1C` (centres undefined), the activation is reported as inactive: 0.62%.
With `CP(=O)(Nc1ccccn1)Oc1ccccc1` (centres undefined) the activation was inactive: 1.12%.
In the case of `COc1ccccc1OP(C)(=O)Nc1ccc(C)cc1C` (centres undefined), the activation is reported as inactive: 0%.
In the case of `CCc1ccc(OP(C)(=O)O)cc1`, the activation is reported as inactive: -1.26%.
In the case of `CCN(CC)CCCOC(=O)C(O)(c1ccccc1)c1ccccc1`, the activation is reported as inactive: 1.3%.
In the case of `O=[N+]([O-])c1cc([N+](=O)[O-])c(Nc2cccnc2)c([N+](=O)[O-])c1`, the activation is reported as inactive: 0.18%.
For `O=[N+]([O-])c1ccc2c(c1)C=Nc1ccccc1O2`, the activation was inactive: 3.4%.
For `CC(C)(C)c1ccc(OP(C)(=O)Nc2ccc(SC(F)(F)F)cc2)cc1` (centres undefined), the activation was inactive: 0.88%.
With `Cc1cccc(C)c1OP(C)(N)=O` (centres undefined) the activation was inactive: 0.57%.
With `COc1ccccc1OP(C)(=O)Nc1ccc(C)cc1` (centres undefined) the activation was inactive: 0.07%.
For `Cc1ccc(NP(C)(=O)Oc2ccccc2)c(C)c1` (centres undefined), the activation was inactive: 2.57%.
With `CCOC(=O)c1ccc(NP(C)(=O)Oc2ccccc2)cc1` (centres undefined) the activation was inactive: 0.88%.
For `Cc1cc(C)cc(OP(C)(N)=O)c1` (centres undefined), the activation was inactive: -1.58%.
In the case of `COc1ccccc1OP(C)(=O)Nc1cc(Cl)ccc1C` (centres undefined), the activation is reported as inactive: -0.51%.
With `COc1ccc(OP(C)(=O)Nc2cccc(F)c2)cc1` (centres undefined) the activation was inactive: -0.34%.
With `CP(=S)(Nn1cnnc1)Oc1ccccc1` (centres undefined) the activation was inactive: 1.13%.
In the case of `CP(=O)(Nc1ccccc1Br)Oc1ccccc1` (centres undefined), the activation is reported as inactive: 1.3%.
In the case of `COc1ccccc1OP(C)(=O)Nc1ccccc1` (centres undefined), the activation is reported as inactive: 0.58%.
For `CP(=O)(Nc1ccc(SC(F)(F)F)cc1)Oc1ccc(Cl)cc1` (centres undefined), the activation was inactive: 0.9%.
With `Cc1ccc(Nc2c([N+](=O)[O-])cc([N+](=O)[O-])cc2[N+](=O)[O-])cc1` the activation was inactive: -0.22%.
With `Cc1cccc(C)c1OP(C)(=O)Nc1ccc(SC(F)(F)F)cc1` (centres undefined) the activation was inactive: 2.39%.
For `CP(=O)(Oc1ccccc1)OC(c1ccccc1)C(F)(F)F` (centres undefined), the activation was inactive: -0.64%.
In the case of `CCc1ccc(OP(C)(=O)N2CCN(c3ccc([N+](=O)[O-])cc3)CC2)cc1` (centres undefined), the activation is reported as inactive: -3.56%.
For `CP(=O)(NC(=O)Nc1ccccc1)Oc1ccccc1` (centres undefined), the activation was inactive: 1.9%.
With `Cc1cc(C)cc(OP(C)(=O)Nc2ccc(SC(F)(F)F)cc2)c1` (centres undefined) the activation was inactive: 1.13%.
With `O=[N+]([O-])c1cc([N+](=O)[O-])c(O)c([N+](=O)[O-])c1.c1ccc(Oc2ccncc2)cc1` the activation was inactive: 1.07%.
With `CCOC(=O)c1ccc(NP(C)(=O)Oc2ccc(OC)cc2)cc1` (centres undefined) the activation was inactive: 1.73%.
In the case of `CCOP(C)(=S)SCC(=O)NC(C)C(=O)O` (centres undefined), the activation is reported as inactive: -0.3%.
In the case of `CP(=O)(Nc1ccccn1)Oc1ccc(Cl)cc1` (centres undefined), the activation is reported as inactive: -1.94%.
In the case of `O=[N+]([O-])c1cc([N+](=O)[O-])c(-n2nnc3ccccc32)c([N+](=O)[O-])c1`, the activation is reported as inactive: 1.84%.
With `O=[N+]([O-])c1cc([N+](=O)[O-])c(-c2cnn(-c3ccccc3)c2)c([N+](=O)[O-])c1` the activation was inactive: 0.17%.
For `Cc1nc2ccc3ccccc3c2s1.O=[N+]([O-])c1cc([N+](=O)[O-])c(O)c([N+](=O)[O-])c1`, the activation was inactive: -0.86%.
With `O=[N+]([O-])c1cc([N+](=O)[O-])c(Nc2nnnn2CCO)c([N+](=O)[O-])c1` the activation was inactive: 1.48%.
In the case of `CC1=C2N=C(C=C3N=C(C(C)=C4[N-][C@@](C)([C@@H]5N=C1[C@](C)(CCC(=O)NC[C@@H](C)OP(=O)([O-])O[C@H]1[C@@H](O)[C@@H](n6cnc7cc(C)c(C)cc76)O[C@@H]1CO)[C@H]5CC(N)=O)[C@@](C)(CC(N)=O)[C@@H]4CCC(N)=O)[C@@](C)(CC(N)=O)[C@@H]3CCC(N)=O)C(C)(C)[C@@H]2CCC(N)=O.[C-]#N.[Co+3]`, the activation is reported as inactive: -0.29%.
In the case of `CCOC(=O)C(CC)C1=NC(C)(C)Cc2ccccc21.O=[N+]([O-])c1cc([N+](=O)[O-])c(O)c([N+](=O)[O-])c1` (centres undefined), the activation is reported as inactive: -0.49%.
With `CN1CCCCC1COC(=O)C1(O)c2ccccc2CCc2ccccc21` (centres undefined) the activation was inactive: -0.27%.
With `COc1ccccc1OP(C)(=O)Nc1c(C)cccc1C` (centres undefined) the activation was inactive: -0.49%.
In the case of `CP(=O)(Nc1ccc(SC(F)(F)F)cc1)Oc1ccccc1` (centres undefined), the activation is reported as inactive: 0.66%.
In the case of `CCCOc1ccc(NP(C)(=O)Oc2ccc(Cl)cc2)cc1` (centres undefined), the activation is reported as inactive: 1.73%.
For `O=C(O)c1cccc(Nc2c([N+](=O)[O-])cc([N+](=O)[O-])cc2[N+](=O)[O-])c1`, the activation was inactive: -0.14%.
With `CC1=NCCc2c1[nH]c1ccccc21.O=[N+]([O-])c1cc([N+](=O)[O-])c(O)c([N+](=O)[O-])c1` the activation was inactive: -0.43%.
In the case of `COc1ccccc1OP(C)(=O)Nc1cccc(Br)c1` (centres undefined), the activation is reported as inactive: 0.47%.
For `CCOC(=O)c1ccc(NP(C)(=O)Oc2cc(C)cc(C)c2)cc1` (centres undefined), the activation was inactive: -2.53%.
With `Cc1cc(C)cc(OP(C)(=O)Nc2ccc(C)cc2C)c1` (centres undefined) the activation was inactive: 1.27%.
With `Cc1ccc(C)c(NP(C)(=O)Oc2ccccc2)c1` (centres undefined) the activation was inactive: 1.28%.
In the case of `CP(=O)(Nc1cccc(Br)c1)Oc1ccccc1` (centres undefined), the activation is reported as inactive: -2.28%.
With `Cc1cc(C)cc(OP(C)(=O)Nc2ccccn2)c1` (centres undefined) the activation was inactive: -1.07%.
